# Source: PubChem BioAssay AID570 (The Scripps Research Institute Molecular Screening Center, 2006)
# This is a selection; strong and weak results do not stand in their true shares. Activity calls are given as the source filed them.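 How the source made its calls: active means inhibition above the mean of compound-free control plate wells plus 3 SD (cut at about 14% in these data); inactive means the rest.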
# Target: Collagenase 3 (Homo sapiens) (UniProt P45452)
# Assay: inhibition of MMP13 collagenase activity – biochemical, FRET peptide cleavage, primary screen (AID 570);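 further: 0% = DMSO wells and 100% = wells with reference MMP-13 inhibitor after basal subtraction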
# Conditions: MMP-13 fTHP FRET cleavage, Mca fluorescence; at 4 µM; stronger effect = higher value
row,Compound,inhibition
1,Cc1nn(-c2ccccc2)c2c1P(=O)(N1CCOCC1)N(C)C(c1ccccc1)=N2 (stereo not given),inactive: -2.9%
2,O=P1(Nc2ccc(Br)cn2)COc2ccccc2OC1,inactive: 0.8%
3,Cc1ccc(OCC(=O)OC2CN3CCC2CC3)cc1 (stereo not given),inactive: -1.8%
4,O=P1(Nc2ncccn2)COc2ccccc2OC1,inactive: -3.5%
5,Clc1n[nH]nc1-c1nn[nH][15n]1,inactive: -5.6%
6,O=P1(Nc2ccccn2)COc2ccccc2OC1,inactive: -3.4%
7,Cc1cccc(OCC(=O)OC2CN3CCC2CC3)c1 (stereo not given),inactive: 5.5%
8,O=P(Nc1nccs1)(c1ccccc1)c1nc2ccccc2s1 (stereo not given),inactive: 1.2%
9,CCOP1(=S)c2c(C)nn(CCC#N)c2N=C(c2ccccc2F)N1C (stereo not given),inactive: 6.8%
10,CCOP1(=S)c2c(C)nn(CCC#N)c2N=C(c2ccc(F)cc2)N1C (stereo not given),inactive: -8.9%
11,O=C(OC1CN2CCC1CC2)C12CC3CC(CC(C3)C1)C2 (stereo not given),inactive: -3%
12,O=C(COc1ccccc1)OC1CN2CCC1CC2 (stereo not given),inactive: -1.5%
13,COP1(=S)c2c(C)nn(CCC#N)c2N=C(c2ccc(F)cc2)N1C (stereo not given),inactive: 0.7%
14,CCc1nc2c(n1)c1c(non1O)c1c2no[n+]1[O-],inactive: 4.2%
15,Cc1c2non([O-])c-2c(C)[n+](=O)[n+]1[O-],inactive: -4.2%
16,COC(=O)c1cc2c(s1)N=C(c1ccccc1)N(C)P2(=O)N1CCOCC1 (stereo not given),inactive: 2%
17,O=P1(Nc2nc3ccc(Cl)cc3s2)COc2ccccc2O1 (stereo not given),inactive: 1.8%
18,c1nnnn1CCn1cnnn1,inactive: -0.3%
19,O=P(Nc1nccs1)(c1ccccc1)c1ccccc1,inactive: -0.4%
20,O=C(OC1CN2CCC1CC2)c1cccc(Cl)c1 (stereo not given),inactive: 0%
